This is a selection: effects in other tests are not listed, and their absence says nothing.
Columns and labels:
G117H/E197Q HuBchE = G117H/E197Q HuBchE (Homo sapiens, UniProt P06276, E225Q/G145H); assay: OP inhibition of G117H/E197Q HuBchE, remaining activity (Ellman); settings: 0.5 mM compound, 48 hr at 4° C.; 1 mM BchI; buffer = 100%
HuBchE = HuBchE (Homo sapiens, UniProt P06276); assay: Time-dependent inhibition kinetics of HuBchE by OP compounds
RhBchE = assay: Time-dependent inhibition kinetics of RhBchE by ETP; settings: Table 5; 50 mM potassium phosphate pH 7.2, 25° C.
WT HuBchE = WT HuBchE (Homo sapiens, UniProt P06276); assay: OP inhibition of WT HuBchE, remaining activity (Ellman)

By UniProt entry, the sequences of proteins in these tests, tags left out. Where a name states a change or a piece, a line headed by the entry shows the natural chain unless it says otherwise. Residues count along the entry.
UniProt P06276, 29-602 limits assumed: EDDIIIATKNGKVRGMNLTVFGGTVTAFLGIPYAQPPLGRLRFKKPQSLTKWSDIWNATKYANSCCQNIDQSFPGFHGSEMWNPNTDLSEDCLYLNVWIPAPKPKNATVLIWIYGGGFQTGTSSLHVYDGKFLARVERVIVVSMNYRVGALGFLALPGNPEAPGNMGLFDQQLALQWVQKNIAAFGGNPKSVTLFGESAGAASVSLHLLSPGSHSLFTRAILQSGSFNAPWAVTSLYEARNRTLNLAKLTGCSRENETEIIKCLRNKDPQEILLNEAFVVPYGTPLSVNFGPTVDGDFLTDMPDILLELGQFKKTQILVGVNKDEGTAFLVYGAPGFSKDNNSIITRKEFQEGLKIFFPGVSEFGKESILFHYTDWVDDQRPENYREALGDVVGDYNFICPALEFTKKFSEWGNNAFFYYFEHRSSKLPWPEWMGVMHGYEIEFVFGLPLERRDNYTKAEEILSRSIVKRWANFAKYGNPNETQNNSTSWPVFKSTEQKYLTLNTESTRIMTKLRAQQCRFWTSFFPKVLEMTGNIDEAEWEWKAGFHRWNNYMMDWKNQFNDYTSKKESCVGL
UniProt P06276, 29-602 G145H/E225Q limits assumed: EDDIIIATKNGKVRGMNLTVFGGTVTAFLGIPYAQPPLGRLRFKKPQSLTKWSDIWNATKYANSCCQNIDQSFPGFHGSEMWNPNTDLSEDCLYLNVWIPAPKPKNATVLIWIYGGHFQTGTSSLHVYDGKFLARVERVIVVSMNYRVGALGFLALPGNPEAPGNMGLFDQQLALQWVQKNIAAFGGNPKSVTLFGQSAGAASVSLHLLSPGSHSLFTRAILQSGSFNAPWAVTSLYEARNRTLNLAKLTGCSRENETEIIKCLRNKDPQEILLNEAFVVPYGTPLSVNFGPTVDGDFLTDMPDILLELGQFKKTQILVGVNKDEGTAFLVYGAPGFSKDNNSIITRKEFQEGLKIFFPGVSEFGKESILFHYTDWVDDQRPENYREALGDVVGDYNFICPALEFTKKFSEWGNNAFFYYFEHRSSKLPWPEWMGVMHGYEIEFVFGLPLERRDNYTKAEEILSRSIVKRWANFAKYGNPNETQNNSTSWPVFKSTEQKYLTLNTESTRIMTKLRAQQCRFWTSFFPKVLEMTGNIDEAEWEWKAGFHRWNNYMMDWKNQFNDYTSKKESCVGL

SMILES: CCOP(=O)(OCC)SCC[N+](C)(C)C
- remaining enzyme activity, G117H/E197Q (G117H/E197Q HuBchE): 12.77%
- ki inhibition rate constant, HuBchE (HuBchE; Table 5, 50 mM potassium phosphate pH 7.2, 25° C.): 1860 ± 135 × 10^3 (M^−1 min^−1)
- ki × 10^3 (M^−1min^−1) (HuBchE; Table 7, huBchE): 1860 ± 135 × 10^3 (M^−1min^−1)
- ki inhibition rate constant, RhBchE (RhBchE): 764.4 ± 40.5 × 10^3 (M^−1 min^−1)
- remaining enzyme activity, WT (WT HuBchE; 0.5 mM compound, 48 hr at 4° C., 1 mM BchI, buffer = 100%): 0.02%
- WT remaining activity when BchI hydrolysis examined for longer periods of time (WT HuBchE; post incubation with 0.5 mM compound): no detectable activity

Source: patent US20070286846A1, “Novel methods for ester detoxication” (published 2007)
